Sequences of proteins named here, by UniProt entry; tags and fusion partners are left off.
UniProt Q15858, whole entry: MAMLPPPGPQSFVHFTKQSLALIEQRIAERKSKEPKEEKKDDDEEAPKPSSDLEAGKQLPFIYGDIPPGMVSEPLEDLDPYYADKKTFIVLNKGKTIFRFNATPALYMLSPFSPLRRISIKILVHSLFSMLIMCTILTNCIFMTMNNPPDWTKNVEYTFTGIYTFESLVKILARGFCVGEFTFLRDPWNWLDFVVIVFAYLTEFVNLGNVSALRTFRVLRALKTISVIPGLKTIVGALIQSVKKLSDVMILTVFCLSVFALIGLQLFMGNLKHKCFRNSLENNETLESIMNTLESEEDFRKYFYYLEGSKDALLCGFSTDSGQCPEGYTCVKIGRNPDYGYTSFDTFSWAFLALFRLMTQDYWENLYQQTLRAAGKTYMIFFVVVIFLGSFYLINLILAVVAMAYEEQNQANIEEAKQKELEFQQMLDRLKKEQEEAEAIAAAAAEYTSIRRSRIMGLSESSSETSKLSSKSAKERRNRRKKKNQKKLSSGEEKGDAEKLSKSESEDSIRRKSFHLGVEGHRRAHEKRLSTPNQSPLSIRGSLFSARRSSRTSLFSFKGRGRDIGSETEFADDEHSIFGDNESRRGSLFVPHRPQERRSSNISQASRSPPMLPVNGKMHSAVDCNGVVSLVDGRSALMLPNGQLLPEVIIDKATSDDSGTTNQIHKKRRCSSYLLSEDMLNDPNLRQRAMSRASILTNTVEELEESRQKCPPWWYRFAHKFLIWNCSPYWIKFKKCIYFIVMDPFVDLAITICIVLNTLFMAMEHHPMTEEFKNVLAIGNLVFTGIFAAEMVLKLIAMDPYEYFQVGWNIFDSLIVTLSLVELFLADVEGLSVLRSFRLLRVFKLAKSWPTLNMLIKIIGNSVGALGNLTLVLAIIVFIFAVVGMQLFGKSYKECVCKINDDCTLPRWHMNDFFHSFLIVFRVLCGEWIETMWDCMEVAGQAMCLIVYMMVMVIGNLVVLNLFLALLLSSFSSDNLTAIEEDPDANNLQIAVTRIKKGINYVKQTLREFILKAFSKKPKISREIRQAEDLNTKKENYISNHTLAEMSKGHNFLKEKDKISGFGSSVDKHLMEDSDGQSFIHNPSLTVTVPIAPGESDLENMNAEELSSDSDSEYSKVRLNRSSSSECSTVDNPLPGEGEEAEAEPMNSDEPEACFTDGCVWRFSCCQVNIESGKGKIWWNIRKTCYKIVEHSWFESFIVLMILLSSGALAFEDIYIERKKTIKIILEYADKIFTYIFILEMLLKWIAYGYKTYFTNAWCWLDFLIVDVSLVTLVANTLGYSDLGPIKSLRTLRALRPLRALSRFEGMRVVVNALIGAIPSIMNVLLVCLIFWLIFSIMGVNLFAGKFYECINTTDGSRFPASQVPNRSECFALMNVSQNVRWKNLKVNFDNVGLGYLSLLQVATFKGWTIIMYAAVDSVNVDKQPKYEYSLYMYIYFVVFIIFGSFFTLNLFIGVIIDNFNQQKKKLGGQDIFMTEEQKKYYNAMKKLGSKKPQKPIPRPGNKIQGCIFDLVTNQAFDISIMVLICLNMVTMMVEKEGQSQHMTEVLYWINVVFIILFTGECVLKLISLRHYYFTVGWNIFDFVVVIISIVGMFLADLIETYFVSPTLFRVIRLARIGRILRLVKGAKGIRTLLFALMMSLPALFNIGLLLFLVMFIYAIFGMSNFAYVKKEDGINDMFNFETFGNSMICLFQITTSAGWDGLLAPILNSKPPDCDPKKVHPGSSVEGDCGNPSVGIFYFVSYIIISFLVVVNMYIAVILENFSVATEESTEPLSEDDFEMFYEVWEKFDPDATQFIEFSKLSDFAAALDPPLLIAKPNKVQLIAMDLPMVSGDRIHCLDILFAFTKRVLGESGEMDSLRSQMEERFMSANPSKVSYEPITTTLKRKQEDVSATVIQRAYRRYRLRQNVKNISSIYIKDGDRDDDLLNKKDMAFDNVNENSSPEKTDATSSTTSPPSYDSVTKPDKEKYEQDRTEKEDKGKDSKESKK
UniProt Q14524, whole entry: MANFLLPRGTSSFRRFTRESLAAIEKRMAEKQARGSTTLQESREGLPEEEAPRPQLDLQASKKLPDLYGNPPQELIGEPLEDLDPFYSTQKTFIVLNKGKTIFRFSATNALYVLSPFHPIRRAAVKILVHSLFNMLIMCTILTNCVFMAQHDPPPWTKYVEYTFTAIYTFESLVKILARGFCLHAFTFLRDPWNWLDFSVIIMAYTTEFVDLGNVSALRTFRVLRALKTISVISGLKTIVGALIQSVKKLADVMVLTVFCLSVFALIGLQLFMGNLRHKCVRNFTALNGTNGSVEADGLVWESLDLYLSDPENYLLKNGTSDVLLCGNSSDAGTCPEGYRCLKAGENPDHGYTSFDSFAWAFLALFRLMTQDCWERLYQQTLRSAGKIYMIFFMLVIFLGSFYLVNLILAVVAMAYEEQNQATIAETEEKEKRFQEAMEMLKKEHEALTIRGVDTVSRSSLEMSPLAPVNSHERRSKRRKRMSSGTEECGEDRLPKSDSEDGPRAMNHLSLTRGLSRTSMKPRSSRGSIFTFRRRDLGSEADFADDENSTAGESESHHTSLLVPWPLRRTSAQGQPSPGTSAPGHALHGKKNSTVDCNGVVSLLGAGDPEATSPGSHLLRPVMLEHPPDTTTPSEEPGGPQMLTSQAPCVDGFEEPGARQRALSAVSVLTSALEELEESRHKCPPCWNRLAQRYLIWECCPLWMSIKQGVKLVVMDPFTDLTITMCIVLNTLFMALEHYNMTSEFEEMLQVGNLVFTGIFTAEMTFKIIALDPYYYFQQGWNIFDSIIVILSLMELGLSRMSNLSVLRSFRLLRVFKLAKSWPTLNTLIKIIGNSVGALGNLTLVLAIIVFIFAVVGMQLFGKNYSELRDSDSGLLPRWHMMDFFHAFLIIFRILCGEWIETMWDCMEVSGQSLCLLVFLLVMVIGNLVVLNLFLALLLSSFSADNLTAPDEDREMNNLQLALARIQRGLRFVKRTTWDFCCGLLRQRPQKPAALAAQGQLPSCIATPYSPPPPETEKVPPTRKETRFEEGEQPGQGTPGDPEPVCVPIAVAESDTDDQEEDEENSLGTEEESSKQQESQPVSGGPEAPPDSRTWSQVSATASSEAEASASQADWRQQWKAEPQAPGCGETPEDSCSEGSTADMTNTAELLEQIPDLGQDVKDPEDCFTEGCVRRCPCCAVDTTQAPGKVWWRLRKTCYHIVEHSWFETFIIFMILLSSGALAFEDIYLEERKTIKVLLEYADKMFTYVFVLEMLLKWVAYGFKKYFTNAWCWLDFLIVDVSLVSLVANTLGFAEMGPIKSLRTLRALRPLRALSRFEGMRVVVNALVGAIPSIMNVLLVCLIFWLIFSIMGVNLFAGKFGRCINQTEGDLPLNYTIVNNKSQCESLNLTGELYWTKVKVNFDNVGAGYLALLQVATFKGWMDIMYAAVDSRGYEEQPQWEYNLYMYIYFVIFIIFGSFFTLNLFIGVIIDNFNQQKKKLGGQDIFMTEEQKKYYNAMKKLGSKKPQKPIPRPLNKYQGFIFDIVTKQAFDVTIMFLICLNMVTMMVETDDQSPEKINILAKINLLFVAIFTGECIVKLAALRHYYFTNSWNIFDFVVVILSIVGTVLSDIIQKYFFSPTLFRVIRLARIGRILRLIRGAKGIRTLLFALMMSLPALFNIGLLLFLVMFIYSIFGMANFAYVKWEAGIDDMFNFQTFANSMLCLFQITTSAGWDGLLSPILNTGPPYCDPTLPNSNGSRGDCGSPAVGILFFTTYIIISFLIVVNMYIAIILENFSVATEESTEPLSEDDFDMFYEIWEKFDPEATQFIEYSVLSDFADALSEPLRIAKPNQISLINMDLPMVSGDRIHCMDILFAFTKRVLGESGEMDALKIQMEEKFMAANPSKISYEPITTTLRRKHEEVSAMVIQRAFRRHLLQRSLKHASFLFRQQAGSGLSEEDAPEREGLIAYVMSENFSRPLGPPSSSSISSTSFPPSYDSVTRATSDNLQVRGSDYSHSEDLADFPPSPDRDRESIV

In ChEMBL document CHEMBL3414527, “Engineering potent and selective analogues of GpTx-1, a tarantula venom peptide antagonist of the Na(V)1.7 sodium channel” (J Med Chem, 2015):

Assays:
[1] = molecular target: Sodium channel protein type 9 subunit alpha (Homo sapiens, UniProt Q15858); assay: Inhibition of human NaV1.7 at -140 mV holding potential by whole-cell patch clamp assay
[2] = molecular target: Sodium channel protein type 5 subunit alpha (Homo sapiens, UniProt Q14524); assay: Inhibition of human NaV1.5 at -140 mV holding potential by whole-cell patch clamp assay

| SMILES | IC50 [1] [nM] | IC50 [2] [nM] |
| --- | --- | --- |
| CC[C@H](C)[C@@H]1NC(=O)[C@@H]2CSSC[C@@H]3NC(=O)[C@H](C(C)C)NC(=O)[C@H](CC(C)C)NC(=O)[C@H](CC(N)=O)NC(=O)[C@@H]4CCCN4C(=O)[C@H](CCCNC(=N)N)NC(=O)[C@H](CSSC[C@H](NC(=O)[C@@H](N)CC(=O)O)C(=O)N[C@@H](CC(C)C)C(=O)NCC(=O)N[C@@H](C)C(=O)N[C@@H](CC(C)C)C(=O)N[C@@H](CCCNC(=N)N)C(=O)N[C@@H](CCCCN)C(=O)N2)NC(=O)[C@H](CSSC[C@@H](C(=O)N[C@@H](CCCCN)C(=O)N[C@@H](Cc2ccc(O)cc2)C(=O)N[C@H](C(=O)N[C@@H](Cc2ccccc2)C(N)=O)C(C)C)NC(=O)[C@H](Cc2c[nH]c4ccccc24)NC(=O)[C@H](CCCCN)NC(=O)[C@H](Cc2cnc[nH]2)NC(=O)[C@H]([C@@H](C)O)NC(=O)[C@H](CCCNC(=N)N)NC(=O)[C@H](CO)NC3=O)NC(=O)[C@H](CCCCN)NC(=O)[C@H](CC(=O)O)NC(=O)[C@H](CC(N)=O)NC(=O)[C@H](CC(=O)O)NC(=O)[C@@H]2CCCN2C1=O | 28 | > 10000 |
| CC[C@H](C)[C@@H]1NC(=O)[C@@H]2CSSC[C@@H]3NC(=O)[C@H](C(C)C)NC(=O)[C@H](CC(C)C)NC(=O)[C@H](CC(N)=O)NC(=O)[C@@H]4CCCN4C(=O)[C@H](CCCNC(=N)N)NC(=O)[C@H](CSSC[C@H](NC(=O)[C@@H](N)CC(=O)O)C(=O)N[C@@H](CC(C)C)C(=O)NCC(=O)N[C@@H](C)C(=O)N[C@@H](Cc4ccccc4)C(=O)N[C@@H](CCCNC(=N)N)C(=O)N[C@@H](CCCCN)C(=O)N2)NC(=O)[C@H](CSSC[C@@H](C(=O)N[C@@H](CCCCN)C(=O)N[C@@H](Cc2ccc(O)cc2)C(=O)N[C@H](C(=O)N[C@@H](Cc2ccccc2)C(N)=O)C(C)C)NC(=O)[C@H](Cc2c[nH]c4ccccc24)NC(=O)[C@H](CCCNC(=N)N)NC(=O)[C@H](Cc2cnc[nH]2)NC(=O)[C@H]([C@@H](C)O)NC(=O)[C@H](CCCNC(=N)N)NC(=O)[C@H](CO)NC3=O)NC(=O)[C@H](CCCCN)NC(=O)[C@H](CC(=O)O)NC(=O)[C@H](CC(N)=O)NC(=O)[C@H](CC(=O)O)NC(=O)[C@@H]2CCCN2C1=O | 11 | > 10000 |
| CC[C@H](C)[C@@H]1NC(=O)[C@@H]2CSSC[C@@H]3NC(=O)[C@H](C(C)C)NC(=O)[C@H](CC(C)C)NC(=O)[C@H](CC(N)=O)NC(=O)[C@@H]4CCCN4C(=O)[C@H](CCCNC(=N)N)NC(=O)[C@H](CSSC[C@H](NC(=O)[C@@H](N)CC(=O)O)C(=O)N[C@@H](CC(C)C)C(=O)NCC(=O)N[C@@H](C)C(=O)N[C@@H](Cc4ccccc4)C(=O)N[C@@H](CCCNC(=N)N)C(=O)N[C@@H](CCCCN)C(=O)N2)NC(=O)[C@H](CSSC[C@@H](C(=O)N[C@@H](CCCCN)C(=O)N[C@@H](Cc2ccc(O)cc2)C(=O)N[C@H](C(=O)N[C@@H](Cc2ccccc2)C(N)=O)C(C)C)NC(=O)[C@H](Cc2c[nH]c4ccccc24)NC(=O)[C@H](CCCCN)NC(=O)[C@H](Cc2cnc[nH]2)NC(=O)[C@H]([C@@H](C)O)NC(=O)[C@H](CCCNC(=N)N)NC(=O)[C@H](CO)NC3=O)NC(=O)[C@H](CCCCN)NC(=O)[C@H](CC(=O)O)NC(=O)[C@H](CC(N)=O)NC(=O)[C@H](CC(=O)O)NC(=O)[C@@H]2CCCN2C1=O | 13 | > 10000 |
| CC[C@H](C)[C@@H]1NC(=O)[C@@H]2CSSC[C@@H]3NC(=O)[C@H](C(C)C)NC(=O)[C@H](CC(C)C)NC(=O)[C@H](CC(N)=O)NC(=O)[C@@H]4CCCN4C(=O)[C@H](CCCNC(=N)N)NC(=O)[C@H](CSSC[C@H](NC(=O)[C@@H](N)CC(=O)O)C(=O)N[C@@H](CC(C)C)C(=O)NCC(=O)N[C@@H](C)C(=O)N[C@@H](CC(C)C)C(=O)N[C@@H](CCCNC(=N)N)C(=O)N[C@@H](CCCCN)C(=O)N2)NC(=O)[C@H](CSSC[C@@H](C(=O)N[C@@H](CCCCN)C(=O)N[C@@H](Cc2ccc(O)cc2)C(=O)N[C@H](C(=O)N[C@@H](Cc2ccccc2)C(N)=O)C(C)C)NC(=O)[C@H](Cc2c[nH]c4ccccc24)NC(=O)[C@H](CCCNC(=N)N)NC(=O)[C@H](Cc2cnc[nH]2)NC(=O)[C@H]([C@@H](C)O)NC(=O)[C@H](CCCNC(=N)N)NC(=O)[C@H](CO)NC3=O)NC(=O)[C@H](CCCCN)NC(=O)[C@H](CC(=O)O)NC(=O)[C@H](CC(N)=O)NC(=O)[C@H](CC(=O)O)NC(=O)[C@@H]2CCCN2C1=O | 8 | > 10000 |
